# Cyclic peptide permeability, from CycPeptMPDB

Values of Townsend et al. 2020, doi:10.26434/chemrxiv.13335941.v1, as listed in CycPeptMPDB.

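The data file gives no further conditions (lipid, pH, time, direction or concentration), and values from different papers need not be comparable. Other peptides of the study may be missing here. Peptides that the database sets to -10, its floor, are left out.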

PAMPA is the parallel artificial membrane permeability assay, which has no cells and reads passive diffusion.
P is given in units of 10^-6 cm/s (from log10 values with two decimals); larger means faster passage.

structure (SMILES),PAMPA (10^-6 cm/s)
CC(C)C[C@@H]1NC(=O)[C@@H]2CCCN2C(=O)CN(Cc2ccccc2)C(=O)[C@H](CC(C)C)NC(=O)[C@H](C)N(C)C(=O)[C@H]2CCCN2C(=O)[C@H](Cc2ccccc2)NC1=O,0.81
CCCN1CC(=O)N(C)[C@H](CC(C)C)C(=O)N(C)[C@@H](CC(C)C)C(=O)N2CCC[C@@H]2C(=O)N[C@@H](CC(C)C)C(=O)N[C@@H](Cc2ccccc2)C1=O,9.8
CC(C)C[C@@H]1C(=O)N(C)[C@H](CC(C)C)C(=O)N2CCC[C@H]2C(=O)N[C@H](CC(C)C)C(=O)N[C@@H](Cc2ccccc2)C(=O)N2CCC[C@@H]2C(=O)N[C@@H](C)C(=O)N1C,0.6
CC(C)C[C@@H]1NC(=O)[C@@H](C)N(C)C(=O)[C@H]2CCCN2C(=O)[C@H](Cc2ccccc2)NC(=O)[C@@H](CC(C)C)N(C)C(=O)[C@@H]2CCCN2C(=O)C[C@H](Cc2ccccc2)NC1=O,5
CC(C)C[C@@H]1NC(=O)[C@@H]2CCCN2C(=O)[C@@H](CC(C)C)N(C)C(=O)[C@@H](CC(C)C)N(C)C(=O)[C@H](C)N(C)C(=O)[C@H](Cc2ccccc2)NC1=O,24
CC(C)C[C@@H]1NC(=O)[C@@H](C)NC(=O)[C@H](Cc2ccccc2)NC(=O)[C@@H](CC(C)C)NC(=O)[C@@H]2CCCN2C(=O)CN(Cc2ccccc2)C1=O,0.23
CC(C)C[C@@H]1C(=O)N[C@H](CC(C)C)C(=O)N2CCC[C@H]2C(=O)N[C@H](CC(C)C)C(=O)N[C@@H](Cc2ccccc2)C(=O)N(C)[C@H](C)C(=O)N1C,5.6
CC(C)C[C@@H]1C(=O)N2CCC[C@H]2C(=O)N(C)[C@H](CC(C)C)C(=O)N[C@@H](Cc2ccccc2)C(=O)N2CCC[C@H]2C(=O)N[C@H](C)C(=O)N(C)[C@H](CC(C)C)C(=O)N1C,2.2
CCCN1CC(=O)N(C)[C@H](CC(C)C)C(=O)N(C)[C@@H](CC(C)C)C(=O)N2CCC[C@H]2C(=O)N(C)[C@H](CC(C)C)C(=O)N[C@@H](Cc2ccccc2)C1=O,15
CC(C)C[C@@H]1C(=O)N[C@@H](Cc2ccccc2)CC(=O)N2CCC[C@@H]2C(=O)N(C)[C@H](CC(C)C)C(=O)N[C@@H](Cc2ccccc2)C(=O)N2CCC[C@@H]2C(=O)N[C@@H](C)C(=O)N1C,3
CC(C)C[C@H]1NC(=O)[C@H](C)NC(=O)[C@@H]2CCCN2C(=O)[C@H](Cc2ccccc2)NC(=O)[C@@H](CC(C)C)NC(=O)[C@H]2CCCN2C(=O)C[C@H](Cc2ccccc2)NC1=O,0.28
CC(C)C[C@H]1NC(=O)[C@@H]2CCCN2C(=O)[C@@H](CC(C)C)NC(=O)CN(Cc2ccccc2)C(=O)C[C@H](Cc2ccccc2)NC(=O)[C@@H]2CCCN2C(=O)[C@H](Cc2ccccc2)NC1=O,1.5
CCCN1CC(=O)N[C@H](CC(C)C)C(=O)N(C)[C@@H](CC(C)C)C(=O)N2CCC[C@@H]2C(=O)N[C@H](CC(C)C)C(=O)N[C@@H](Cc2ccccc2)C(=O)N2CCC[C@H]2C1=O,1.9
CC(C)C[C@@H]1C(=O)N2CCC[C@H]2C(=O)N[C@H](CC(C)C)C(=O)N[C@@H](Cc2ccccc2)C(=O)N(C)[C@@H](C)C(=O)N(C)[C@H](CC(C)C)C(=O)N1C,14
CC(C)C[C@@H]1NC(=O)[C@@H](C)N(C)C(=O)[C@H]2CCCN2C(=O)[C@H](Cc2ccccc2)NC(=O)[C@@H](CC(C)C)N(C)C(=O)[C@H]2CCCN2C(=O)CN(Cc2ccccc2)C1=O,5.8
CCCN1CC(=O)N[C@@H](CC(C)C)C(=O)N(C)[C@@H](CC(C)C)C(=O)N2CCC[C@@H]2C(=O)N[C@@H](CC(C)C)C(=O)N[C@@H](Cc2ccccc2)C(=O)N2CCC[C@H]2C1=O,1.5
CC(C)C[C@@H]1NC(=O)[C@@H](C)N(C)C(=O)[C@H]2CCCN2C(=O)[C@H](Cc2ccccc2)NC(=O)CN(Cc2ccccc2)C(=O)[C@H]2CCCN2C(=O)[C@@H](CC(C)C)NC1=O,0.95
CC(C)C[C@@H]1NC(=O)[C@H](C)NC(=O)[C@H](Cc2ccccc2)NC(=O)CN(Cc2ccccc2)C(=O)[C@@H]2CCCN2C(=O)[C@@H](CC(C)C)NC1=O,2.1
CC(C)C[C@H]1NC(=O)[C@@H]2CCCN2C(=O)[C@H](CC(C)C)N(C)C(=O)[C@@H](CC(C)C)NC(=O)[C@H](C)NC(=O)[C@H](Cc2ccccc2)NC1=O,0.26

2 of these entries, quoted again:

structure (SMILES),PAMPA (10^-6 cm/s)
CC(C)C[C@@H]1C(=O)N2CCC[C@H]2C(=O)N[C@H](CC(C)C)C(=O)N[C@@H](Cc2ccccc2)C(=O)N(C)[C@@H](C)C(=O)N(C)[C@H](CC(C)C)C(=O)N1C,14
CCCN1CC(=O)N(C)[C@H](CC(C)C)C(=O)N(C)[C@@H](CC(C)C)C(=O)N2CCC[C@H]2C(=O)N(C)[C@H](CC(C)C)C(=O)N[C@@H](Cc2ccccc2)C1=O,15